Results published in US10927170B2, “Anti-claudin 1 monoclonal antibodies for the prevention and treatment of hepatocellular carcinoma” (INSTITUT HOSPITALIER UNIVERSITAIRE DE STRASBOURG, priority 2015, dated 2021).

System: HCV Jc1-infected Huh7.5.1^dif cells
Assay: 186-gene HCC risk signature (nCounter, GSEA, nearest template prediction) in persistently HCV Jc1-infected Huh7.5.1^dif cells
Format: cell-based, human
Details: DAA 1 nM DCV+1 μM SOF; interferon alpha-2a 10 IU/ml; erlotinib 0.1 μM; pioglitazone 1 μM; metformin 3 μM; mAb 1, 10 and 100 μg/ml
Method: Huh7.5.1 cells have already been described (Zhong et al., Proc Natl Acad Sci USA, 2005, 102(26): 9294-9299). For proliferation arrest and differentiation (Huh7.5.1^dif cells), 2.5.10^4 to 3.10^4 Huh7.5.1 cells were cultured in Dulbecco's Modified Eagle Medium (DMEM) containing 1% dimethylsulfoxide (DMSO).
Cell culture-derived HCVcc Jc1 (genotype 2a/2a) (Pietschmann et al., Proc Natl Acad Sci USA, 2006, 103(19): 7408-7413) were generated in Huh7.5.1 cells as previously described (Wakita et al., Nat Med., 2005, 11(7): 791-796). HCVcc infectivity was determined by calculating the 50% tissue culture infectious doses (TCID50) in infection experiments as previously described (Lindenbach et al., Science, 2005, 309(5734): 623-626). HCV infection was assessed by qRT-PCR of intracellular HCV RNA (Xiao et al., Gut, 2015, 64(3): 483-494) as well as by immunostaining using an HCV E2-specific AP33 antibody as previously described (Krieger et al., Hepatology. 2010, 51(4): 1144-1157).
Liver cells were lysed in TRI-reagent (Molecular Research Center), and RNA was purified using Direct-zol RNA MiniPrep (Zymo Research) according to the manufacturer's instructions. RNA quantity and quality were assessed using NanoDrop (ThermoScientific) and Bioanalyzer 2100 ([…]). Gene expression profiling was performed using 250-500 ng total RNA by using nCounter Digital Analyzer system (NanoString). […]

## interferon alpha-2a: interferon-alpha 2a from Roche
  Reversal of HCC high-risk genes as shown by GSEA (FIG. 2A): partially reverses
